Measured values taken from US11034717B2, “Farnesoid X receptor modulators” (Intercept Pharmaceuticals, Inc., priority 2015, dated 2021).

Sequences of proteins named here, by UniProt entry; tags and fusion partners are left off. Residues count along the entry.
UniProt Q96RI1, 262-486: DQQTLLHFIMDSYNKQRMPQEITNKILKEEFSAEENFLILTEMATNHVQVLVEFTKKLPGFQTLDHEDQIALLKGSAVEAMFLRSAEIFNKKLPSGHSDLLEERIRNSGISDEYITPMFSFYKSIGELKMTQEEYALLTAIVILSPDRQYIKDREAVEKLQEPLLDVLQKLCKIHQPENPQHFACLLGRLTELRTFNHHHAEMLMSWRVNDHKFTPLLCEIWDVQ

What was measured:
Human FXR = Human FXR (Homo sapiens (Human), UniProt Q96RI1); test: AlphaScreen FXR / SRC-1 coactivator recruitment assay; assay type: biochemical; conditions: Table 1; Ref CDCA
[1] = 1-octanol-water partition coefficient of ionized species; assay type: physicochemical
Procedure: (§1) Physiochemical properties of a compound of the invention such as water solubility, critical micellar concentration, surface tension, and LogPA were determined using methods known in the art.

HepG2 cells = conditions: read-out: ATP Content EC50; Table 5A; from Rizzo et al., Mol. Pharm. 2010, 78, 617-630; cited from earlier work
[2] = Critical micellar concentration; assay type: physicochemical; conditions: determined in […] NaCl water solution
Procedure: as §1

Compound: 6α-ethyl-3α,7α,23-trihydroxy-24-nor-5β-cholan-23-sulphate sodium salt [Compound B]
- EC50 (Human FXR): 0.03 µM
- LogPA−: 1-octanol-water partition coefficient as ionized species [1]: 2.0
- EC50 (HepG2 cells): 800 µM

Compound: CC[C@H]1[C@@H](O)[C@@H]2[C@H](CC[C@]3(C)[C@@H]([C@H](C)CCC(=O)O)CC[C@@H]23)[C@@]2(C)CC[C@@H](O)C[C@@H]12 [Compound A, 6α-ethyl-3α,7α-dihydroxy-5β-cholan-24-oic acid]
- EC50 (HepG2 cells): 230 µM

Compound: CC[C@H]1[C@@H](O)C2C3CC[C@H]([C@H](C)CCC(=O)O)[C@@]3(C)C[C@H](O)C2[C@@]2(C)CC[C@@H](O)C[C@@H]12 (some centres unmarked) [Compound L1, reference compound]
- CMC: Critical Micellar Concentration [2]: 15.8 mM
